BindingDB's records for 2547074

Chains of the proteins cited; added tags and fusions are not shown.
UniProt Q99720, whole entry, looked up: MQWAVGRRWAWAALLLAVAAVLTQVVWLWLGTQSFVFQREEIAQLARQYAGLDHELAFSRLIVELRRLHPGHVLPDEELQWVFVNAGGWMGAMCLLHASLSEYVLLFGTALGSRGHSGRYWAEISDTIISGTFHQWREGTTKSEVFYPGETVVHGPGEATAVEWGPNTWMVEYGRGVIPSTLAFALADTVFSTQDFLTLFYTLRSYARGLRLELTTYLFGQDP

Tests used:
[1] = molecular target: T1, Sigma non-opioid intracellular receptor 1 (Homo sapiens, UniProt Q99720); test: Compound was evaluated for binding affinity towards sigma opioid receptor using [3H]DTG in guinea pig ileum
[2] = molecular target: T1, Sigma non-opioid intracellular receptor 1; test: (§1) Compound was evaluated for binding affinity towards sigma opioid receptor using [3H](+)-3-PPP in guinea pig ileum
[3] = molecular target: T1, Sigma non-opioid intracellular receptor 1; test: ChEBML_201276; method: as §1

CN(C(=O)Cc1ccc(Cl)c(Cl)c1)[C@H]1CCCC[C@H]1N1CCCC1
Ki [1]: 250 nM
Ki [2]: 81 nM

CN(C(=O)Cc1ccc(Cl)c(Cl)c1)[C@H]1CCCC[C@@H]1N1CCCC1
Ki [3]: 594 nM
